# Results: article PMC3897731, “Antimicrobial Properties and Membrane-Active Mechanism of a Potential α-Helical Antimicrobial Derived from Cathelicidin PMAP-36” (PLoS ONE, 2014)
# How the values were obtained:
# Conditions in all cases: broth microdilution, MH broth, 1×10^5 CFU/ml, 24 h at 37°C, visible turbidity, triplicate
# [1] = test system: Escherichia coli ATCC 25922
# Protocol: (§1) The antimicrobial activity of each peptide was determined against the following bacteria strains: Escherichia coli ATCC 25922, Escherichia coli UB1005, Salmonella enterica serovar typhimurium C77-31, Staphylococcus aureus ATCC 29213, Staphylococcus aureus ATCC 25923 and Staphylococcus epidermidis ATCC 12228. The minimal inhibitory concentrations (MICs) of the peptides were measured according to a modified version of the National Committee for Clinical Laboratory Standards (NCCLS) broth microdilution method as described previously. Briefly, mid-logarithmic phase bacteria were cultured in Mueller-Hinton (MH) broth and then diluted to 1×10^5 CFU/ml. Equal volumes (50 µl) of microorganism solution and 2-fold serially diluted different concentrations (0.25–128 µM) peptides in 0.01% (v/v) acetic acid and 0.2% (w/v) bovine serum albumin (BSA, Sigma) were added to each well of the sterile 96-well plate. After incubation for 24 h at 37°C, MICs were determined as the lowest concentration of peptides that prevented visible turbidity by visual inspection. The tests were performed in triplicate. Cultures without peptides and uninoculated MH broth were employed as positive and negative controls, respectively. In addition, the salt stability of the peptides was tested in the MIC assay mentioned above.
# [2] = test system: Staphylococcus aureus ATCC 25923
# Protocol: as §1
# [3] = test system: Staphylococcus aureus ATCC 29213
# Protocol: as §1
compound,measurement,setting,value
"CC[C@H](C)[C@H](NC(=O)CN)C(=O)NCC(=O)N[C@@H](C)C(=O)N[C@H](C(=O)N[C@@H](CC(C)C)C(=O)N[C@@H](CCCCN)C(=O)N[C@H](C(=O)N[C@@H](CC(C)C)C(=O)N[C@H](C(=O)N[C@H](C(=O)NCC(=O)N[C@@H](CC(C)C)C(=O)N1CCC[C@H]1C(=O)N[C@@H](C)C(=O)N[C@@H](CC(C)C)C(=O)N[C@H](C(=O)N[C@@H](CO)C(=O)N[C@@H](Cc1c[nH]c2ccccc12)C(=O)N[C@H](C(=O)N[C@@H](CCCCN)C(=O)N[C@@H](CCCNC(=N)N)C(=O)N[C@@H](CCCCN)C(=O)N[C@@H](CCCNC(=N)N)C(=O)N[C@@H](CCC(N)=O)C(=O)N[C@@H](CCC(N)=O)C(N)=O)[C@@H](C)CC)[C@@H](C)CC)[C@@H](C)O)[C@@H](C)O)C(C)C)C(C)C [melittin, reference compound]",MIC E. coli ATCC25922,[1],2 µM
same,MIC S. aureus ATCC 25923,[2],8 µM
same,MIC S. aureus ATCC 29213,[3],8 µM
